According to US20230312576A1:

Tested on: HeLa cells
Test: Cytotoxicity, CellTiter-Glo Luminescent Cell Viability assay, HeLa
Settings: read-out: EC50 (inhibitor concentration corresponding to half of live cells), 48 hours

Cc1c2cc[nH]c(=O)c2c(C)c2c1[nH]c1ccc(OC(=O)c3ccccc3)cc12
EC50: 1000 nM
